Apparent affinities of Ab-14 variants for a coronavirus HR2 peptide

Target peptide (SARS-CoV-2 spike, HR2 region): PDVDLGDISGINAS

Ab-14 is the parent antibody, in scFv form: VH, then three GGGGS repeats, then VL. The heavy chain is unchanged in all variants.
VH: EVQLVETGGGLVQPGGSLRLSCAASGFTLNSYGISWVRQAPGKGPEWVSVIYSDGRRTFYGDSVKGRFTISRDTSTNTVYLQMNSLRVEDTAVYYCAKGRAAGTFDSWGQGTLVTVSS
VL: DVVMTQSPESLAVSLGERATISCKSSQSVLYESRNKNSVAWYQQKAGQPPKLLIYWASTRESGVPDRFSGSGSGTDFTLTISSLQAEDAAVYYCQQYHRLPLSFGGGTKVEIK

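The parent was found by panning a naive human phage display library on the peptide. Designed CDR sequences, proposed from the first random library and measured here. Their group label is 14L_En_Gibbs (En: ensemble of fine-tuned language models; Gibbs: Gibbs sampling). The scFvs were displayed on barcoded MATa yeast, the peptide on MATalpha yeast. Binding brings cells together so that they mate, and sequencing counts the barcode pairs among the diploids. Scores were corrected for input abundance and mapped to Kd with protein pairs of known affinity run in the same pool. The assay was run in six technical replicates.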

Each variant is given by its three light chain CDRs, as the data file delimits them; those of the parent are KSSQSVLYESRNKNSVA, WASTRES, QQYHRLPLS.
Scale: log10 of Kd in nM, estimated from mating counts; low values are strong binders.
A pair that was not seen in that replicate is written "nd"; this usually means weak binding, but a binder can also be missed.
The range of this assay differs from that of the first round, and the authors advise against merging the two.
The authors' rule: three or more of the six replicates give a measured affinity, fewer mean a poor binder.
As a blank, each scFv also met three strains without target: over all light chain designs, 4% of these pairings were detected, typically at 2.64 and seldom below 1.59. The control count says in how many pairings with the empty strains this scFv gave a signal, with their mean in brackets.
The parent sequence was in this pool as ten entries: three were never detected, three once, and four in most replicates, with averages from 0.34 to 2.37.

CDR-L1 | CDR-L2 | CDR-L3 | log10 Kd, replicates | empty controls
KLWGRCMDGELINYNVA | NGRLAVQ | QQYDRLPLS | 0.47 0.58 0.34 0.41 0.27 0.49 | 2 of 18 (3.21)
AMSEHAFYGQRDENAIA | GADVRAK | QQYWRLPLT | 0.29 0.39 0.37 0.08 0.18 0.72 | 1 of 18 (2.26)
SLHMYTLGEKNANNSIA | EKSYRAI | QQYSHLPLC | 1.67 1.47 2.03 1.55 1.56 1.79 | 1 of 18 (2.92)
MLDMNLSYGDNLQNRIA | EANHLET | QQYAHLPLG | nd 1.21 0.74 0.74 0.47 3.71 | 0 of 18
ALTNEFESVSHHKNNIA | HTDQRCM | QQYATLPLS | 1.17 0.93 1.07 1.17 0.93 1.58 | 0 of 18
ALTAHRLVAIEAKNSIA | NAVMRYD | QQYAQLPLM | -0.52 0.21 -0.56 -0.86 -0.67 -0.25 | 0 of 18
RIKCRVLEHGGQNNAIA | AAAKLVT | QQYARLPLA | nd nd nd nd nd nd | 0 of 18
QLESLEGEGYAYKENIA | EGEQRFS | QQYVRLPLH | 1.30 0.78 0.45 0.59 0.48 0.68 | 0 of 18
NLVQEKSVGDYNAGNVA | AGNQLSV | QQYNRLPLI | 0.11 0.32 0.01 -0.03 0.18 0.34 | 0 of 18
QFHSHMAGDGNIQHSIA | EASCAEP | QSYFRLPLS | nd 1.63 1.82 1.33 nd nd | 2 of 18 (2.10)
KLDLTNGEEDKKGQNIA | EASTAGT | QSYWRLPLS | 2.02 1.52 1.48 2.06 1.67 1.68 | 1 of 18 (2.46)
SMIPFDNQIMKGTNNIA | HTSVRAS | QQYMRLPLV | 0.53 0.33 0.35 0.50 0.74 0.54 | 3 of 18 (2.88)
TIDDEEPSRGLKWNSIA | GVATRLQ | QQYHRLPLI | 0.79 1.69 1.22 0.59 0.75 1.26 | 0 of 18
TLMYAGEWEGENKKSVA | NAIIKNE | QQYVRLPLA | nd 1.42 1.43 0.92 1.37 2.89 | 0 of 18
FIQGNYNDKYQVSNSIA | DEAHLMA | QQYDLLPLS | nd nd 2.74 2.20 2.05 nd | 0 of 18
SIQFYTENFAEWGDSIA | DVSATTA | QQYHRLPLA | 1.82 1.39 1.33 1.48 1.28 1.67 | 1 of 18 (3.06)
NVSIEPPEGTRYWEAVA | DHSQRNN | QQYDQLPLS | nd nd nd nd 3.66 3.33 | 0 of 18
ALNQKGFQLHGMRDSIA | HSDTRLA | QQYYRLPLA | 2.25 0.79 0.92 0.42 0.02 0.72 | 0 of 18
HISNMQAYGYSATNSVA | DNTEKLN | QQYIRLPLT | 0.20 0.18 0.00 0.07 -0.06 0.19 | 1 of 18 (3.38)
KITLIFSNKGNQRHSVA | NAETLAH | QQYYRLPFM | 1.11 2.80 1.06 1.97 1.96 1.64 | 0 of 18
HFSQHTMEFMSQNKAVA | EVTTTMT | QQYARLPFI | 1.28 0.67 1.48 1.07 1.11 1.32 | 0 of 18
KLWAYFQGLEQYMQNVA | DGSYVST | QQYDRLPLS | nd 1.24 nd nd 1.87 nd | 0 of 18
KLGYPSYGEVNGQHNIA | EMDQLTF | QQYSHLPLS | 0.80 0.82 0.61 0.60 0.74 0.67 | 2 of 18 (2.63)
HMNKFMSQIGGARNNVA | GDTTLAQ | QHYHRLPLS | nd 3.24 nd 3.09 3.38 nd | 1 of 18 (2.93)
NVNVSEDQWPSSKNAIA | QTTCRVL | QQYAHLPLS | 0.53 0.79 0.65 0.50 0.65 0.65 | 0 of 18
RFTEHILGLENKIYAIA | NATKLME | QQYFRLPFA | 0.93 0.61 0.84 0.80 0.44 1.05 | 1 of 18 (2.71)
KLTHVTFVLDRQKYSIA | DSERKME | QQYNRLPLT | 1.31 0.61 1.40 1.37 1.46 0.98 | 1 of 18 (2.41)
NIRGVEFESAMHGNSVA | GVDLREA | QQYFRLPLH | 0.07 0.18 0.14 0.24 0.22 0.34 | 1 of 18 (2.76)
MITEGQLGENKNSSNIA | SQNQKTD | QQYQRLPLV | nd 0.97 1.56 0.98 0.98 1.32 | 1 of 18 (2.11)
KLHHYKLGENGMRGSVA | NMTIRDQ | QQYFRLPLF | 1.23 0.76 0.77 0.57 0.85 0.89 | 1 of 18 (3.96)
MLDQMDGQMGGNTNNIA | GVVEHRI | QQYHRLPLS | nd 3.10 nd 2.46 2.57 2.72 | 1 of 18 (2.55)
HMNHEFLGYTNYEQAIA | HESQRLY | QQYSRLPLS | 1.14 1.07 1.41 0.95 1.51 1.13 | 2 of 18 (2.93)
SLTAHVEEAKRAENSVA | EAVMLES | QQYHQLPLM | 1.24 1.77 2.05 1.39 1.43 1.43 | 1 of 18 (2.07)
KLYDEATSRVQTAENIA | EKTESLQ | QQYHRLPLS | 2.28 1.90 2.05 2.30 2.13 1.77 | 0 of 18
TLVDNIQGGMWAKKNVA | DESTRVN | QQYYMLPLS | 0.67 0.46 0.49 0.07 0.38 0.73 | 2 of 18 (2.18)
KMTEQLYNGEREPSSIA | AGVIGSD | QQYHQLPLI | 0.96 1.43 1.36 1.02 1.44 1.74 | 0 of 18
NLSYRQGEPTGMVNSVA | QTSLRAH | QQYAHLPLC | 0.79 0.44 0.63 0.61 0.46 0.72 | 1 of 18 (4.09)
GVDHTMYSAQEAPNSIA | NAEQTNI | QQYQRLPLS | 1.55 0.44 0.78 0.64 0.57 0.81 | 1 of 18 (2.64)
MFNMGVGIEDMKWNSVA | SADVRAF | QQYGRLPFS | 0.74 0.77 0.82 0.98 0.84 1.02 | 3 of 18 (2.79)
RIQDHMAVGEMSHSSIA | EESTVMD | QQYSRLPLA | 0.85 0.98 2.06 0.88 1.02 0.95 | 0 of 18
TLHANIEYGGIMWSSIA | GNVQRAN | QQYARLPLS | 1.41 1.10 1.42 0.87 0.94 1.17 | 1 of 18 (3.37)
QINDLDEDSQAEVSQVA | NAAEAIV | QQYQRLPLS | 1.00 1.82 0.83 0.86 1.32 1.37 | 0 of 18
TLAQGIYEPVRKSNNIA | EASHVGD | QQYERLPLE | 1.12 0.80 0.72 0.83 1.06 1.09 | 2 of 18 (2.05)
HLEMKVGGVQAVGYSVA | HASQRQA | QQYYQLPLT | 0.65 0.75 0.26 0.59 0.29 0.44 | 0 of 18

Data: MIT Lincoln Laboratory AlphaSeq set, Li et al. 2023, doi:10.1038/s41467-023-39022-2, as distributed in FLAb.